Measured values from patent publication US9789057B2, “Pharmaceutical delivery system” (Perrigo Pharma International Designated Activity Company, priority 2003, dated 2017).

System: bacterial vaginitis, e.g., Gardnerella morphotype
Details: active agent in the drug delivery system

## CCC[C@@H]1C[C@@H](C(=O)N[C@@H]([C@H]2O[C@H](SC)[C@H](O)[C@@H](O)[C@H]2O)[C@H](C)Cl)N(C)C1 [clindamycin]
  reduction of conventional treatment period or quantity of agent used: at least 25%
